{"source": "patent US20090317451A1", "about": "“PRESSURE-SENSITIVE ADHESIVE FOR SKIN SURFACE AND/OR TRANSDERMAL SUBSTANCE DELIVERY” (priority 2008, published 2009)", "origin": "cited, not measured here", "details": "solvent(s) in which soluble; Merck 12th edition or other reference", "note": "Some compounds may have been tested in ways that are not shown here."}
{"molecule": "CCC(=O)N(c1ccccc1)C1CCN(CCc2ccccc2)CC1", "values": [{"measurement": "Reported Solubility", "result": "Alcohol"}]}
